Amino acid sequences for entries named in this document (tags omitted).
UniProt P32300, whole entry: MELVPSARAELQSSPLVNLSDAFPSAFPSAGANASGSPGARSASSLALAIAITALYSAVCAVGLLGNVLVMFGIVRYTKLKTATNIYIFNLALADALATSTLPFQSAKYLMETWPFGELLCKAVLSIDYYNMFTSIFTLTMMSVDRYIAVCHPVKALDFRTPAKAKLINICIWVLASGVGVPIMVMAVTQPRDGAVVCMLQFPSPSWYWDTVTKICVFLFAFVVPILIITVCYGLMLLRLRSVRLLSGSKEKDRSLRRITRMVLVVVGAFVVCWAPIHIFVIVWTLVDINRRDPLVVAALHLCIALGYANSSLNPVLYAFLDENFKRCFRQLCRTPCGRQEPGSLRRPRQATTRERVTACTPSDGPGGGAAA

In ChEMBL document CHEMBL1212862, “Role of 2',6'-dimethyl-l-tyrosine (Dmt) in some opioid lead compounds” (Bioorg Med Chem, 2010):

Molecular target: Delta-type opioid receptor (Mus musculus, UniProt P32300)
Assay: Agonist activity at delta opioid receptor in mouse vas deference
Format: functional
Outline: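 Isolated tissue assay in organ baths with balanced salt solution in physiological buffer, pH 7.5. Delta agonism measured on single mouse vas deferens, mu agonism on myenteric plexus longitudinal muscle strips (2–3 cm) from small intestine of male Hartley guinea pigs. Inhibition of electrically evoked contraction; IC50 (nM) from dose-response curves. DPDPE (MVD) and PL017 (GPI) run as internal standards. Mean ± SE of at least four tissue samples.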

Structure (SMILES): CC(C)[C@H](NC(=O)[C@H](CCC(=O)O)NC(=O)[C@H](Cc1ccccc1)NC(=O)[C@H](C)NC(=O)[C@@H](N)Cc1ccc(O)cc1)C(=O)N[C@H](C(=O)NCC(=O)O)C(C)C [DELTORPHINE II]
- IC50: 0.53 nM
